Chains of the proteins cited; added tags and fusions are not shown. Residues count along the entry.
UniProt P16581, 22-301 limits assumed: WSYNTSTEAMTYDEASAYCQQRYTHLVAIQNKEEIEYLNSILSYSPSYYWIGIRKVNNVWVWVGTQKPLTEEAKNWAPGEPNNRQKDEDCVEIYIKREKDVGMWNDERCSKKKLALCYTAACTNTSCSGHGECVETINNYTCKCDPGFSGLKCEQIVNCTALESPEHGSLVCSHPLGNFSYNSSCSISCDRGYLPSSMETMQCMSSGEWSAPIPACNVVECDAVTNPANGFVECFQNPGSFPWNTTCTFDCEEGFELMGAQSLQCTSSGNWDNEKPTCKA

In patent US20200316100A1, “HALOALKYL FUCOSE-CONTAINING SELECTIN ANTAGONISTS” (GlycoMimetics, Inc., priority 2016, published 2020):

Target: E-selectinLEC2 (Homo sapiens, UniProt P16581)
Experiment: E-Selectin Activity - Binding Assay (MST, Monolith NT.115)
Details: read-out: KD MST, 298 K, E-selectinLEC2 0.1 μM, buffer A pH 7.4 with 0.1% Tween 20, every measurement conducted once, single site binding fit
Procedure: The E-selectinLEC2, construct was expressed and purified according to Preston et al., J. Mol. Cell Biol. (2015). The labeling procedure was performed by blocking the binding site with an excess of a suitable ligand to prevent the dye from reacting in the binding site. Subsequently the amine reactive protein labeling kit BLUE-NHS (Nanotemper Technologies GmbH, Munich, Germany) according to the protocol of the manufacturer. Unreacted dye was removed by dialysis against buffer A (10 mM HEPES, 150 mM NaCl, 1 mM CaCl2, pH 7.4) using a Slide-A-Lyzer Dialysis cassette with 10 kDa cut-off (Thermo Scientific, Rockford, Ill., USA).
MEASUEMENT: All experiments were carried out using a Monolith™NT.115 device Nanoternper Technologies GmbH, Munich, Germany) at 298 K with 50% LED power, 30% laser power, initial delay of 5 seconds, laser on time of 30 seconds, and laser off time of 5 seconds with standard treated capillaries. Throughout all experiments the E-selectinLEC2 concentration was 0.1 μM. As starting point for the dilution series the concentration 30 times higher than the estimated KD was chosen. The compounds were diluted 1:1 with buffer A supplemented with 0.1% (v/v) Tween 20.
DATA ANALYSIS: Every measurement was conducted once. Data points were normalized using the bound and unbound borders calculated by NanoTemper Analysis 1.2.205 software (NanoTemper Technologies GmbH, Munich, Germany) and analyzed with GraphPad Prism 5.0 (GraphPad Software, La Jolla, Calif., USA). To evaluate the KD of the compounds the measurements were globally fitted using equation (1) for single site binding. A. Cooper, Biophysical Chemistry, Royal Society of Chemistry, Cambridge, 2004, Ed 1, 109-10. Equation 1 is: […]
where [PL] is the protein-ligand complex concentration and KD is the dissociation constant. CP represents the total concentration of protein and CL the total concentration of ligand.

Structure (SMILES) | pKd | pKd (tested form: Na salt)
CC[C@H]1CCC[C@@H](O[C@@H]2O[C@H](CO)[C@H](O)[C@H](O[C@@H](CC3CCCCC3)C(=O)N3CCC3)[C@H]2O)[C@@H]1O[C@@H]1O[C@@H](C(F)(F)F)[C@@H](O)[C@@H](O)[C@@H]1O | 6.15 | –
C[C@@H](O[C@@H]1O[C@@H](C(F)(F)F)[C@@H](O)[C@@H](O)[C@@H]1O)[C@@H](C)O[C@@H]1O[C@H](CO)[C@H](O)[C@H](O[C@@H](CC2CCCCC2)C(=O)O)[C@H]1O | – | 4.25
CC[C@H]1CCC[C@@H](O[C@@H]2O[C@H](CO)[C@H](O)[C@H](O[C@@H](CC3CCCCC3)C(=O)N3CC(F)(F)C3)[C@H]2OC(=O)c2ccccc2)[C@@H]1O[C@@H]1O[C@@H](C(F)(F)F)[C@@H](O)[C@@H](O)[C@@H]1O | > 6.00 | –

Continued, values first:

pKd | pKd (tested form: Na salt) | Structure (SMILES)
6.22 | – | CC[C@H]1CCC[C@@H](O[C@@H]2O[C@H](CO)[C@H](O)[C@H](O[C@@H](CC(C)C)C(=O)N3CCC3)[C@H]2Cl)[C@@H]1O[C@@H]1O[C@@H](C(F)(F)F)[C@@H](O)[C@@H](O)[C@@H]1O
6.52 | – | CC[C@H]1CCC[C@@H](O[C@@H]2O[C@H](CO)[C@H](O)[C@H](O[C@@H](CC3CCCCC3)C(=O)N3CCC3)[C@H]2OC(C)=O)[C@@H]1O[C@@H]1O[C@@H](C(F)(F)F)[C@@H](O)[C@@H](O)[C@@H]1O

pKd: −log10 of the molar value. Read-outs that look alike come from different tables or passages of the source.
